# A549 tox-1 – kills or reduces viability of A549 cells in Nrf2 counter-screen; A549 ARE-Fluc cells, CellTiter-Fluor viability, 18-24 h; Potency, µM (highest dose often 46 µM), for the others: at the highest dose activity change, negative = cytotoxicity, most hits filed as inhibitors; 0.16% of 390,000 active; AID 504648; also: potency is read from the fitted curve at half-maximal effect; % is scaled to controls: 0 for no effect and ±100 for the full control effect
#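 A549 ARE_Fluc cells in 5% FBS OPTI-MEM were exposed to compounds in concentration-response for 18-24 h at 37 deg C. Viability was read by CellTiter-Fluor fluorescence (Ex 405/Em 525) after 30 min, before the luciferase read.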
# Nrf2 activator – activates Nrf2 signaling | AREc32 ARE-luciferase reporter (MCF7-derived line), luminescence, 24 h | Potency, µM (highest dose often 46.1 µM), without a hit: at the top dose activation, hits mostly activators | 0.31% of 410,000 active | AID 624171; also: potency is read from the fitted curve at half-maximal effect; % of control where 0% means no effect; nearly all actives have a fitted effect of over 65% in size
#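 AREc32 cells carrying an ARE-driven firefly luciferase reporter were seeded at 1000 cells/well in OPTI-MEM with 5% FBS, then exposed to compound for 24 hr at 37 deg C. Luminescence was read with Steady-Glo after 30 min at RT.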
# Nrf2 block – Nrf2 pathway inhibition; A549 ARE-Fluc reporter, luciferase luminescence, 18-24 h; 2.1% of 360,000 active; Potency, µM (series often up to 46 µM), for inactives: at the top dose activity change, negative = inhibition, hits mostly inhibitors; also: potency is read from the fitted curve at half-maximal effect; % is scaled to controls: 0 for no effect and ±100 for the full control effect; nearly all actives have a fitted effect of over 60% in size
#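 Nrf2 function is reported as luminescence of an ARE-controlled luciferase in A549 cells. Compounds were tested at several concentrations, and a CellTiter-Fluor read on the same wells flagged cytotoxicity.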
# miR-21 reporter – miR-21 reporter, rising signal; HeLa miR-21 FLuc reporter, luciferase, 48 h; Potency, µM (titrated, usually from 38.3 µM), for the others: at the top dose reporter change, positive = more light; 340,000 tested, under 10 active; AID 2288; active = well fitted rising curve with a large enough effect; inconclusive = small, poorly fitted or top-dose-only effect; inactive = no such curve, though single readings can be large or run the other way;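 also: % of control where 0% means no effect; miR-21 action dims this reporter so a rising signal means less miR-21 action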
#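 HeLa cells stably expressing CMV-driven firefly luciferase with a downstream miR-21 binding sequence, endogenously expressing miR-21, were treated with titrations (up to about 40uM final) for 48 hours at 37 degree Celsius. Luciferase luminescence was read after lysis.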
# Mito fusion act – mitochondrial division inhibition or fusion activation; S. cerevisiae fusion-defective mutant growth rescue, CellTiterGlo 48 h; Potency, µM (series often up to 46.1 µM), inactives show top-dose growth rescue (activation), usual class: activators; 0.23% of 320,000 active; also: potency is read from the fitted curve at half-maximal effect; % of control where 0% means no effect; nearly all actives have a fitted effect of over 45% in size
#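 Growth-rescue viability read-out: after 48 h at the non-permissive 37C in glycerol/ethanol YPEG, yeast mitochondrial fusion mutants are measured by CellTiterGlo luminescence; compounds (23 nl pinned per well) restoring growth score as division inhibitors or fusion activators.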
# FLuc counter 3 – counter-screen for Nrf2 inhibitors: firefly luciferase enzyme inhibition. shares compounds with Nrf2 block. purified firefly luciferase, luminescence inhibition. Potency, µM (series often up to 57.5 µM), without a hit: at the top dose activity change, negative = inhibition, hits mostly inhibitors. 4% of 1,400 active. AID 720522; also: potency is read from the fitted curve at half-maximal effect; % is scaled to controls: 0 for no effect and ±100 for the full control effect; nearly all actives have a fitted effect of over 65% in size
# A549 tox-2 – toxic to A549 ARE-Fluc cells in Nrf2 counterscreen. shares compounds with Nrf2 block. A549 ARE-Fluc cells, cytotoxicity counterscreen. 2% of 1,400 active. Potency, µM (top dose mostly 46.1 µM), for the others: at the highest dose activity change, negative = cytotoxicity, hits mostly inhibitors;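 also: potency is read from the fitted curve at half-maximal effect; cells exposed to compounds for 18 to 24 hours; % is scaled to controls: 0 for no effect and ±100 for the full control effect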
# ARE-Fluc inh – Nrf2 inhibition confirmed, A549 ARE-luciferase; shares compounds with Nrf2 block; A549 ARE-firefly luciferase reporter, luminescence; Potency, µM (series often up to 46.1 µM), without a hit: at the highest dose activity change, negative = inhibition, hits mostly inhibitors; 74% of 1,400 active; AID 720524; also: potency is read from the fitted curve at half-maximal effect; % is scaled to controls: 0 for no effect and ±100 for the full control effect; nearly all actives have a fitted effect of over 65% in size
# An asterisk follows results filed as active; ? = inconclusive; · = no result given. In the library only some 2.3% were active in any assay of this set; here they are far more common. Unless noted, calls follow the shape of the dose curve; as a rule, active = well fitted curve in the direction sought with a large enough effect; inconclusive = small, poorly fitted or top-dose-only effect, or another doubt; inactive = no such curve, though single readings can be large; an effect the other way counts as inactive or inconclusive.
SMILES,A549 tox-1,Nrf2 activator,Nrf2 block,miR-21 reporter,Mito fusion act,FLuc counter 3,A549 tox-2,ARE-Fluc inh
CC(=O)C1(O)Cc2c(O)c3c(c(O)c2C(OC2CC(N)C(O)C(C)O2)C1)C(=O)c1c(O)cccc1C3=O (stereo unspecified),·,·,·,·,·,-28.3%,?,0.461µM*
COc1cccc2c1C(=O)c1c(O)c3c(c(O)c1C2=O)CC(O)(C(C)=O)CC3OC1CC(N(C)C)C(O)C(C)O1 (stereo unspecified),?,-1.0%,2.31µM*,·,·,-24.6%,?,1.03µM*
Cc1cc(C)c(NC(=O)CSc2ncc3c(n2)-c2cc(Cl)ccc2N(C)S3(=O)=O)c(C)c1,-18.2%,-1.2%,4.61µM*,27.4%,·,3.5%,-19.1%,30.1%
Cc1nn(C(=O)c2cccc([N+](=O)[O-])c2C)c(C)c1S(=O)(=O)N1CCOCC1,-7.1%,-0.4%,·,-1.0%,·,·,·,·
Cc1ccccc1SCC(=O)N1CCN(c2ccc(C(F)(F)F)cn2)CC1,-1.2%,1.5%,3.66µM*,-0.9%,?,-0.6%,-4.4%,?
CC(=O)O[C@@H]1[C@@H](O)CN[C@@H]1Cc1ccccc1,?,·,0.231µM*,·,·,3.0%,?,0.326µM*
Cc1cccc(NC(=O)C2CCC(CNS(=O)(=O)c3ccc(Br)s3)CC2)c1 (stereo unspecified),-5.7%,5.7%,-0.9%,7.1%,·,·,·,·
CCSc1nnc(-c2ccc(Cl)cc2Cl)o1,17.5%,?,?,-52.8%,-1.9%,·,·,·
O=C(O)CCSc1nnc(-c2ccc(Cl)cc2Cl)o1,-4.0%,-4.3%,0.058µM*,?,·,3.01µM*,-0.4%,0.184µM*
CCCCn1c2c(c(=N)c3c1CCC3)CCC2,-14.5%,-1.1%,2.59µM*,?,4.4%,-1.0%,-10.6%,6.51µM*
CCCCCCCn1c2c(c(=N)c3c1CCC3)CCCC2,?,9.2%,0.517µM*,?,-21.4%,1.8%,-27.4%,1.84µM*
CCn1c2c(c(=N)c3c1CCC3)CCC2,-0.6%,-0.1%,31.0%,3.6%,0.0%,·,·,·
CC(=O)c1cccc(NC(=O)c2nc(-c3ccc(C)cc3)n3c2CCCCC3)c1,6.7%,-0.6%,19.5%,-28.4%,·,·,·,·
O=C(NC1CCCC1)c1c[nH]c2ccc(S(=O)(=O)Nc3cccc(C(F)(F)F)c3)cc2c1=O,8.3%,-1.0%,?,14.9%,·,·,·,·
COc1ccc(NC(=O)COC(=O)c2cc(OC)c(OC)cc2NC(=O)c2ccco2)cc1OC,·,-1.0%,5.8µM*,-1.3%,-1.9%,-25.8%,-14.5%,-23.0%
COc1ccc(CCNC(=O)Cn2c(=O)c3cccn3c3ccc(F)cc32)c(OC)c1,7.7%,-0.5%,-8.0%,-7.0%,·,·,·,·
CCOC(=O)c1ccc(Nc2nc3nonc3nc2Nc2cccc(C)c2C)cc1,?,-0.5%,2.31µM*,?,·,15.1µM*,?,5.8µM*
O=S(=O)(c1ccc(NC(=S)NCCC(c2ccccc2)c2ccccc2)cc1)N1CCOCC1,?,1.1%,4.11µM*,?,6.8%,-11.6%,-24.8%,?
CCCCOCCCNC(=S)Nc1ccc(S(=O)(=O)N2CCOCC2)cc1,2.6%,2.4%,-27.4%,13.7%,0.3%,·,·,·
COc1ccc(C2/C=C\CN(S(=O)(=O)c3ccc(C)cc3)C(Cc3ccccc3)C(=O)N2Cc2ccc(F)cc2)cc1 (stereo unspecified),5.7%,·,20.0%,·,·,·,·,·
CCN(CC)c1ccc(C(=O)N2CCC(c3c[nH]c4ccccc34)(c3c[nH]c4ccccc34)CC2)cc1,-0.5%,0.4%,-17.1%,8.4%,·,·,·,·
COc1cccc(-n2cc(C(=O)NCc3ccccc3OC)c3ccccc3c2=O)c1,5.5%,4.8%,?,-57.4%,·,·,·,·
Cc1c2ccncc2cc2c1[nH]c1ccccc12,?,-0.8%,-23.9%,·,·,·,·,·
COc1ccc2[nH]c3c(C)c4ccncc4c(C)c3c2c1,?,-3.0%,8.2µM*,?,7.9%,-26.2%,?,2.59µM*
COc1cccc(NC(=O)CSc2nnc3scc(-c4ccc(Cl)cc4)n23)c1,2.2%,9.2%,-18.8%,4.0%,·,·,·,·
Cc1ccnc2c1ccc1cccnc12,?,17.9%,?,·,16.0%,-17.1%,?,·
COc1cc(NCCCC(C)N)c2ncccc2c1 (stereo unspecified),?,-4.3%,5.8µM*,?,-1.3%,-4.0%,-23.3%,?
COc1cc(NCCCCC(C)N)c2nccc(C)c2c1 (stereo unspecified),·,-6.0%,·,·,·,·,·,·
CN1CCc2c(OCC(=O)N3CCCc4ccccc43)cccc2C1=O,?,2.5%,9.2µM*,5.0%,-0.5%,2.6%,1.0%,?
O=C1c2cccc(OCC(=O)N3CCCc4ccccc43)c2CCN1Cc1ccc(F)cc1,-2.0%,0.6%,-24.3%,28.3%,?,·,·,·

# Profiles from above. Values in the order: A549 tox-1	Nrf2 activator	Nrf2 block	miR-21 reporter	Mito fusion act	FLuc counter 3	A549 tox-2	ARE-Fluc inh
# COc1ccc(CCNC(=O)Cn2c(=O)c3cccn3c3ccc(F)cc32)c(OC)c1 is listed as 7.7%	-0.5%	-8.0%	-7.0%	·	·	·	·
# Cc1ccnc2c1ccc1cccnc12 is listed as ?	17.9%	?	·	16.0%	-17.1%	?	·
# COc1cccc(NC(=O)CSc2nnc3scc(-c4ccc(Cl)cc4)n23)c1 is listed as 2.2%	9.2%	-18.8%	4.0%	·	·	·	·
# CN1CCc2c(OCC(=O)N3CCCc4ccccc43)cccc2C1=O is listed as ?	2.5%	9.2µM*	5.0%	-0.5%	2.6%	1.0%	?

# Continued.
SMILES,A549 tox-1,Nrf2 activator,Nrf2 block,miR-21 reporter,Mito fusion act,FLuc counter 3,A549 tox-2,ARE-Fluc inh
CCC(c1nnnn1Cc1ccccc1)N(Cc1ccccc1)Cc1cc2cc(C)ccc2[nH]c1=O (stereo unspecified),?,·,4.11µM*,·,·,0.3%,-28.0%,?
CC(=O)c1ccc(NC(=O)CN2C(=O)CCc3cc(S(=O)(=O)N4CCC(C)CC4)ccc32)cc1,-4.0%,0.2%,·,-6.3%,·,·,·,·
Cc1cccc2sc(NNC(=O)c3ccc(S(=O)(=O)N4CCc5ccccc5C4)cc3)nc12,-12.8%,2.0%,?,16.5%,0.7%,-13.0%,-23.0%,6.51µM*
CCOC(=O)N1CCN(S(=O)(=O)c2ccc(C(=O)NNc3nc4ccc(Cl)cc4s3)cc2)CC1,?,0.1%,5.8µM*,12.8%,4.9%,-12.5%,-18.6%,7.31µM*
Cc1cccc2sc(NNC(=O)c3ccc(S(=O)(=O)N4CCCC(C)C4)cc3)nc12 (stereo unspecified),-20.9%,-0.1%,?,24.6%,-10.1%,·,·,·
O=C(Nc1cc(F)ccc1F)c1ccc(CN2CC(=O)N3CCCCC3C2=O)cc1 (stereo unspecified),7.8%,-0.3%,-13.9%,29.7%,·,·,·,·
COc1ccc(/C=C/c2ccccn2)cc1,·,·,·,·,·,-1.5%,-30.0%,2.31µM*
COc1ccc(/C=C/C(=O)NC(=S)Nc2ccccn2)cc1,0.7%,7.6%,?,-51.5%,-27.0%,·,·,·
Cc1ccc(NC(=O)Cn2c(=O)n(Cc3ccccc3)c(=O)c3c(C)c(C)sc32)c(C)c1,-4.2%,0.3%,-4.4%,-5.4%,·,·,·,·

# High-throughput results from PubChem.
